scFv variants of Ab-14 (light chain) against a SARS-CoV-2 spike peptide

Values reported by Engelhart et al. 2022, doi:10.1038/s41597-022-01779-4 (FLAb copy).

Target: peptide PDVDLGDISGINAS, taken from heptad repeat 2 (HR2) of SARS-CoV-2 spike.

Ab-14 is the parent antibody, in scFv form: VH, then a 15-residue (Gly4Ser)3 linker, then VL. The heavy chain is unchanged in all variants.
VH: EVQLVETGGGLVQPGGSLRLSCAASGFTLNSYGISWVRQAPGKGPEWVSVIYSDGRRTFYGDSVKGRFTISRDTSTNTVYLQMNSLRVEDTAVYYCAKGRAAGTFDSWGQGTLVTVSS
VL: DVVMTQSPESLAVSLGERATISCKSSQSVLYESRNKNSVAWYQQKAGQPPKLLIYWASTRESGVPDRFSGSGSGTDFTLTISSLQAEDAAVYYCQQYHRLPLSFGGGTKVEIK

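The starting antibody came from a phage panning campaign against this peptide. In library AAYL50, one, two or three CDR residues were substituted; doubles and triples were drawn at random. The scFvs were displayed on barcoded MATa yeast, the peptide on MATalpha yeast. The frequency of each diploid, read from paired DNA barcodes, reflects how well the two displayed proteins bind. A regression on co-assayed BCL2-family reference pairs converts the normalised counts of each replicate to an apparent Kd. The assay was run in three technical replicates.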

The parent's light chain CDRs are KSSQSVLYESRNKNSVA, WASTRES, QQYHRLPLS; each variant's own CDRs replace them letter for letter.
This list gathers variants with a substitution at R34 (VL, numbered from residue 1).
The Kd shown is the geometric mean over detected replicates; a lower Kd is a better binder.
"nd" means that the variant was in the library but no mating with the target was seen in any replicate; the authors take this as a sign of poor binding, and no number exists.
Three control strains display no target. For library AAYL50, 18% of the pairings with them gave a signal, with a median of 15 µM and one signal in twenty below 970 nM, so weak values seen in few replicates may be background.
Parent in this assay: reference entry 4.4 nM, copy in this library 48 nM.

For KSSQSVAYESHNKNSVA | WLSTRES | QQYHRLPLS, the assay gave nd (0 of 3 replicates).
For KKSQSVLYESKNKNSVA | WASTRES | QQYHRLPLS, the assay gave 270 nM (3 of 3 replicates).
For KSSQSVLYESGNKNPVA | WASTRES | QQYHRLPLS, the assay gave 2.5 nM (3 of 3 replicates).
For KSSQSTLYESHNKNSVA | WASTRES | QQYHRLPLS, the assay gave 4.3 nM (3 of 3 replicates).
For KSSQSVLYESPNKCSVA | WASTREK | QQYHRLPLS, the assay gave nd (0 of 3 replicates).
For KMSQSVLYESYNKNSVA | WASTRES | QQYHRGPLS, the assay gave 180 nM (3 of 3 replicates).
For KSSQKVLYESGNKGSVA | WASTRES | QQYHRLPLS, the assay gave 17 nM (3 of 3 replicates).
For KSSQSVLYESQNKNSVA | MASTRES | QRYHRLPLS, the assay gave 150 µM (1 of 3 replicates).
For KSSQSVLYDSCNKNSVA | WASTRES | QQYHSLPLS, the assay gave 390 nM (3 of 3 replicates).
For KDSQSVLYESCNKNSVA | WALTRES | QQYHRLPLS, the assay gave 20 µM (2 of 3 replicates).
For KSSQSVLYESYNKNNEA | WASTRES | QQYHRLPLS, the assay gave 5.5 µM (2 of 3 replicates).
For KSSQSVLYESWNKNSVA | WASTRES | QQNHRLPYS, the assay gave 4.6 nM (3 of 3 replicates).
For KSSQSVLYESMNKNSVA | WASKRES | QQYHRLPHS, the assay gave 4.1 µM (1 of 3 replicates).
For KSSQSVLYESKNKNSVR | HASTRES | QQYHRLPLS, the assay gave 23 µM (3 of 3 replicates).
For KSSQSVLYESCNKNSVA | WASTSEF | QQYHRLPLS, the assay gave nd (0 of 3 replicates).
For KSSESVLYTSMNKNSVA | WASTRES | QQYHRLPLS, the assay gave 4.1 nM (3 of 3 replicates).
For KSSQSVLYESWNKNSVA | WASTRES | QQYHRLPLS, the assay gave 6.2 nM (3 of 3 replicates).
For KSSQSVLYESYNKTSVA | WASTRES | QQYHRHPLS, the assay gave nd (0 of 3 replicates).
For KSSQSVLYESGNINSVA | WASTRES | QQYHRLPPS, the assay gave 5.1 nM (3 of 3 replicates).
For KSSQSVLYESANKNSVA | WASTRED | QQYMRLPLS, the assay gave nd (0 of 3 replicates).
For FSSQSVLYESMNKNSVA | WASTRES | QQYHRRPLS, the assay gave nd (0 of 3 replicates).
For KSSDSVLYESSNKNSVA | WASARES | QQYHRLPLS, the assay gave 5.0 nM (3 of 3 replicates).
For KSSQSVLYESFNKNSVA | FASTREC | QQYHRLPLS, the assay gave 210 nM (3 of 3 replicates).
For KSSQSDLYESSNSNSVA | WASTRES | QQYHRLPLS, the assay gave 17 nM (3 of 3 replicates).
For KSSQSVLYESCNKNSVA | WASTRES | QQYHRLRLQ, the assay gave nd (0 of 3 replicates).
For KSQQKVLYESQNKNSVA | WASTRES | QQYHRLPLS, the assay gave 90 nM (3 of 3 replicates).
For KSSQSVLYENKNKNSVA | WASTRES | QQYHRLPTS, the assay gave 130 nM (3 of 3 replicates).
For KSSQSVLYESLNYNSVA | WASTRES | QQYHRLPYS, the assay gave 120 nM (2 of 3 replicates).
For KSSQSVLYESCNKNSVA | WASTRES | IQRHRLPLS, the assay gave 170 nM (3 of 3 replicates).
For KSSQSMLIESGNKNSVA | WASTRES | QQYHRLPLS, the assay gave 4.7 nM (3 of 3 replicates).
For KSSYSVLYESVNKNSVA | WASTRES | QQYHRLPYS, the assay gave 2.2 µM (3 of 3 replicates).
For KSSQSGLYESNNKNSVA | WASTRES | QQYHRKPLS, the assay gave nd (0 of 3 replicates).
For KSHQSVLYESANKNSVA | WKSTRES | QQYHRLPLS, the assay gave 350 nM (3 of 3 replicates).
For KSSQSVLYESMNKNSVA | WASTRES | QQYHQLPLS, the assay gave 3.3 nM (3 of 3 replicates).
For KSSQSNLYESGNKNSVA | WASTRES | QQYHRLPHS, the assay gave 2.2 µM (1 of 3 replicates).
For KSSGSVLYESINKNSVA | WASTRES | QQYHRLMLS, the assay gave 55 nM (3 of 3 replicates).
For KSSQSVLYESINKNSVA | WASTAES | QQYHRLCLS, the assay gave 680 nM (2 of 3 replicates).
For KGSQSVLYESANKNSVA | WASTRES | QQYHDLPLS, the assay gave 140 nM (3 of 3 replicates).
For KSSQSVLYESNNYNSVA | WASTRES | WQYHRLPLS, the assay gave 430 µM (3 of 3 replicates).
For KSSQSVLYESNNKNSVA | WASTRES | QQYHRLVLS, the assay gave 430 nM (3 of 3 replicates).
For KSSQSVLYESFNALSVA | WASTRES | QQYHRLPLS, the assay gave 1.7 µM (3 of 3 replicates).
For KSSQSVLYYSPNKNSVA | WASTRAS | QQYHRLPLS, the assay gave nd (0 of 3 replicates).
For KSSQSVLYEILNKNSVA | EASTRES | QQYHRLPLS, the assay gave 1.7 nM (3 of 3 replicates).
For KSSQSCLYESANKNSVA | WASTRES | WQYHRLPLS, the assay gave 6.6 nM (3 of 3 replicates).
For KSSQKVLYESKNKNSVA | WASTRES | QQYHRLPLS, the assay gave 160 nM (3 of 3 replicates).
For KSSQSVLYESCNKNSVA | WASTRES | QQGHRLPLS, the assay gave 13 nM (3 of 3 replicates).

Extract of 7 entries:

With KSSESVLYTSMNKNSVA | WASTRES | QQYHRLPLS the result was 4.1 nM (3 of 3 replicates).
With KSSQSVLYESWNKNSVA | WASTRES | QQYHRLPLS the result was 6.2 nM (3 of 3 replicates).
With KGSQSVLYESANKNSVA | WASTRES | QQYHDLPLS the result was 140 nM (3 of 3 replicates).
With KSSYSVLYESVNKNSVA | WASTRES | QQYHRLPYS the result was 2.2 µM (3 of 3 replicates).
With KSSQSVLYESWNKNSVA | WASTRES | QQNHRLPYS the result was 4.6 nM (3 of 3 replicates).
With KKSQSVLYESKNKNSVA | WASTRES | QQYHRLPLS the result was 270 nM (3 of 3 replicates).
With KSSDSVLYESSNKNSVA | WASARES | QQYHRLPLS the result was 5.0 nM (3 of 3 replicates).